Experimental findings from patent US20240400586A1, “HETEROARYL DERIVATIVE PARP INHIBITOR AND USE THEREOF” (HAISCO PHARMACEUTICAL GROUP CO., LTD., priority 2021, published 2024) are described below.

Protein sequences, listed by entry. Tags and fused reporters are not part of them. Residues count along the entry.
UniProt Q460N5, 1470-1801 limits assumed: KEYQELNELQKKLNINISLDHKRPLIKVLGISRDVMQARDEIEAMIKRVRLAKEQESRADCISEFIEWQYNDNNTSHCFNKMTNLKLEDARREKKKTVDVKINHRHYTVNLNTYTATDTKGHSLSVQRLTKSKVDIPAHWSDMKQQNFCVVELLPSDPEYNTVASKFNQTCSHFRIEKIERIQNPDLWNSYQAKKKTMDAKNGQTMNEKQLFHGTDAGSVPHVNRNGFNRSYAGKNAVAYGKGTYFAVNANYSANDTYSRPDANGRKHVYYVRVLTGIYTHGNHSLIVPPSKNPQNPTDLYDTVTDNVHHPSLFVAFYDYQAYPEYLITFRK

Molecules are shown by their SMILES. “And” between values parts separate entries of the source, which are not always exact repeats. Equal values may be shown once.

For the assay, the target named is PARP14 (Homo sapiens (Human), UniProt Q460N5). Put plainly: PARP14 enzyme activity test. The assay is classed as biochemical.

In general, IC50 refers to the concentration that inhibits the measured activity by half. Turning to `CCc1cc2ncc(CN3CCN(c4ccc(C(=O)NC5CC5)nc4)CC3)cc2[nH]c1=O` [Compound 4, N-cyclopropyl-5-(4-((7-ethyl-6-oxo-5,6-dihydro-1,5-naphthyridin-3-yl)methyl)piperazin-1-yl)picolinamide], the IC50 is > 0.5 µM and 7.06 µM.
